Data reported in patent US8420644B2, “Pharmaceutical composition intended for the prevention or for the treatment of cerebral oedemas” (Biocodex, priority 2005, dated 2013).

Assay: Effect of the dose of triethyltin (dose finding)
Assay type: in vivo, rat

## C[CH2][Sn]([Br])([CH2]C)[CH2]C
TET 3 mg/kg/day
  Mortality: no mortality
TET 4 mg/kg/day
  Mortality: mortality from the 4th day
